# scFv variants of Ab-14 (light chain) against a SARS-CoV-2 spike peptide

Data: MIT Lincoln Laboratory AlphaSeq set, Li et al. 2023, doi:10.1038/s41467-023-39022-2, as distributed in FLAb.

All variants were tested on one target, the spike HR2 peptide PDVDLGDISGINAS (SARS-CoV-2).

Parent scFv Ab-14: VH joined to VL by a 15-residue (Gly4Ser)3 linker. Changes lie in the light chain CDRs alone.
VH: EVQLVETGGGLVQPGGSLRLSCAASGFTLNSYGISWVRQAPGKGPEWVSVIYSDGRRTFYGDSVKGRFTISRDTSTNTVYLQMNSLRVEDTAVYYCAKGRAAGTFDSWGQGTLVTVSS
VL: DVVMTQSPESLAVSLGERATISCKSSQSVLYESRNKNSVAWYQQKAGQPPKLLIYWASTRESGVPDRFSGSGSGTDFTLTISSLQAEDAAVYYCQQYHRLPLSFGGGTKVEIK

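The starting antibody came from a phage panning campaign against this peptide. This is the validation round: designs drawn from the data on random variants, tested in the same kind of assay. Several design methods are mixed in this list. Affinity was read by AlphaSeq, a pooled yeast mating assay with surface-displayed partners. Binding brings cells together so that they mate, and sequencing counts the barcode pairs among the diploids. Each replicate has its own calibration line, from reference interactions of the BCL2 family. Mating was done six times.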

Each variant is given by its three light chain CDRs, as the data file delimits them; those of the parent are KSSQSVLYESRNKNSVA, WASTRES, QQYHRLPLS.
Numbers give log10(Kd / nM), so 0 is 1 nM and 3 is 1 µM. Smaller is tighter.
Replicates are averaged; those with no signal do not enter the mean.
An entry "nd" has no value in the source: the pair was not observed among the diploids in any replicate. This suggests poor binding but is not conclusive.
Entries are sorted by rising average, undetected variants last.

| CDR-L1 | CDR-L2 | CDR-L3 | log10 Kd (nM), mean | detected |
|---|---|---|---|---|
| KLKQSVLYESRNKNSVA | GASTRES | QQYHRLPLS | -0.48 | 6/6 |
| KLPQSVLYESRNKNSVA | NASERES | QQYHRLPLS | -0.45 | 6/6 |
| KLQQSEQYESRNKNSVA | NASDRQS | QQYHRLPLS | -0.41 | 6/6 |
| KLSFLGNYEQRNKNSVA | SASTRCS | QQYHRLPLS | -0.36 | 6/6 |
| KLSQSWLYESRNKNSVA | NASKRES | QQYHRLPLS | -0.36 | 6/6 |
| KLMQSMLYESRNKNSVA | DASQRES | QQYHRLPLS | -0.28 | 6/6 |
| KFSPSVLYESHNKNSVA | NASTRMS | QQYHRLPLS | -0.25 | 6/6 |
| KMEQGVLYESRNKMSVA | GASVRES | QQYHRLPLS | -0.24 | 6/6 |
| KLSQSVLYESRQKNNVA | NASTRES | QQYHRLPLS | -0.23 | 6/6 |
| KMSQEVWYESRNKNSVA | EASLREQ | QQYHRLPLS | -0.22 | 6/6 |
| KLQQSVEYESRNKNSVA | QASTRLS | QQYHRLPLS | -0.17 | 6/6 |
| KFSQSVLYESRTTNSVA | NASTRES | QQYHRLPLS | -0.11 | 6/6 |
| KLSESWLYESRNKNSVA | NASTRES | QQYHRLPLS | -0.04 | 6/6 |
| KQSMSVLQESRNKNSVA | DASTRES | QQYHRLPLS | -0.04 | 6/6 |
| KLSQSHLYESRNKNSVA | NASTRES | QQYHRLPLS | 0.01 | 6/6 |
| KLQQSDQYESRVKNSVA | QASVRES | QQYHRLPLS | 0.04 | 6/6 |
| KSSMSYLGESRNKNSVA | EASTRES | QQYHRLPLS | 0.06 | 6/6 |
| KLSQQELYESRNKNSVA | NASTRES | QQYHRLPLS | 0.09 | 6/6 |
| KVSQSVKMESRNKNSVA | DASTRES | QQYHRLPLS | 0.10 | 6/6 |
| KVSQSDLYEDRNKNSVA | NASTRES | QQYHRLPLS | 0.11 | 6/6 |
| KLDFSVLEESRNPNSVA | NASTREE | QDYHRLPLS | 0.15 | 6/6 |
| KLYVSTMLESHAKNSIA | DLSTRGN | QQYHRLPLS | 0.18 | 6/6 |
| KLWQSVLYESRNKNSVA | NASTRMS | QQYHRLPLS | 0.21 | 6/6 |
| KVSQSVLYEDRNKNSVA | EASTRES | QQYHRLPLS | 0.32 | 6/6 |
| FLSQSWLYEDRPKNSVA | NASTRMS | QQYHRLPLS | 0.32 | 6/6 |
| HSSPSVLYESRNFNSVA | NASTRES | QQYHRLPLS | 0.33 | 6/6 |
| KSLQSVQYESRNKNSVA | NASTRED | QQYHRLPLS | 0.34 | 6/6 |
| HLSDSQLYESRNKNSVA | NASTRES | QQYHRLPLN | 0.35 | 6/6 |
| TISQMSTMFSQSINNVA | EVSTREQ | QQYDRLPLA | 0.38 | 6/6 |
| KMSQSVLYESRNKNSVA | DASTRES | QQYHRLPLD | 0.41 | 6/6 |
| KFVQSWGYESRNKNAVA | HASTRCS | QQYHRLPLS | 0.49 | 6/6 |
| RFPEHLLMLESKIYNIA | NATKTME | QQYFRLPLV | 0.51 | 6/6 |
| IIGQSVMFEQTLINSVA | NAQTRES | QQYHRLPLS | 0.57 | 6/6 |
| KSSQSWLYEDRVKNSVA | NASTRES | QQYHRLPLS | 0.60 | 6/6 |
| KISMTSDMELKNRNSVA | ELVTRMS | QQYNRLPLS | 0.62 | 6/6 |
| KISQSILFMSGMNNAIA | QMEMREE | QQYHRLPLS | 0.65 | 6/6 |
| KISQMSTIESITHNSVA | QTSTREQ | QQYDRLPLS | 0.65 | 6/6 |
| KLTMITGLEKVLGNNVA | EMETRER | QQYNRLPLS | 0.73 | 6/6 |
| KLSMITGHMSVSKNNVA | EMATREN | QQYDRLPLS | 0.73 | 6/6 |
| KISSMSTIESIMHNSVA | QTSTREN | QQYDRLPLS | 0.77 | 6/6 |
| KSTQSVLYESRNKNSVA | HASTRED | QQYHRLPLS | 0.78 | 6/6 |
| MLSDVVMQGSYSRNSVA | QESTRAE | QQYHHLPLS | 0.79 | 6/6 |
| HMSMLTLQGMRHTNSVA | QMTTREN | QQYDHLPLS | 0.81 | 6/6 |
| IVSQLMLWGMHAKNSIA | EAETRTN | QQYERLPLF | 0.84 | 5/6 |
| LISSVWDYGSRNYNSVA | QTSTRES | QQYDRLPLE | 0.86 | 6/6 |
| KSSGSVMMLSRNKNSVA | EATTRES | QQYHRLPLS | 0.88 | 6/6 |
| KFVMSWGYESRNKNAVA | HASQRCS | QQYHRLPLS | 0.96 | 6/6 |
| KLSQGWLYESRNKNSVA | NASQREH | QQYHRLPLS | 0.96 | 6/6 |
| KSSQSELYESKNKNSVA | NASHRES | QQCHRLPLS | 1.03 | 6/6 |
| HISTSMRYESSLKNAIA | NEQTRES | QQYHRLPLS | 1.04 | 5/6 |
| VIDAFNFSDGQKWNNVA | QTSVRLQ | QYYQRLPLM | 1.10 | 6/6 |
| KWSWSVDLESRNDNSVA | DASCRED | QQYHRLPLS | 1.31 | 6/6 |
| TISYSALMTGLNRNSVA | QAEERLE | QQYHRLPLS | 1.58 | 6/6 |
| KLQQLVLYESRNKNSVA | DASTRFS | QAYHRLPLS | 1.72 | 6/6 |
| AVSIEHMENTAIWNAIA | DTSLRNN | QQYYHLPLS | 1.79 | 6/6 |
| TISGMMNNMSTKHNSVA | NVTMRPD | QQYHRLPLS | 1.88 | 5/6 |
| KLSQFYRMEMRNKNSVA | DNSTRES | QDYDRLPLS | 2.04 | 1/6 |
| MISQILNMGTFAINSVA | QASLRNE | QQYDRLPLM | 2.14 | 4/6 |
| KLRQMTGYESRNKDSIA | DNSTRGR | QQYHRLPLS | 2.17 | 1/6 |
| KSSQSVLYESRNKNSVA | WASTRES | TQYHRTPLS | 2.25 | 1/6 |
| KMFQSVLYESRNKNPVA | WASTRES | QQYHRLPLS | 2.41 | 1/6 |
| KQSQSVLMESRNKNSVA | EASTRES | QQYHRLPLD | 2.47 | 3/6 |
| KLSMETYGLTGHMSSIA | HQEIRWA | QQYHKLPLI | 2.49 | 2/6 |
| KSSSSVLYESRNKNSVA | WATHRES | QQYHRLPLE | 2.64 | 4/6 |
| KLSLFYRVETREKNSVA | DNSTRES | QDYDRLPLS | 2.73 | 1/6 |
| KCSQPVLNESRNKNSVA | WASTRES | QQYHRLPLS | 2.87 | 3/6 |
| HSSCSVLYESRNKNSVA | QASPRES | QQYHRLPLS | nd | 0/6 |
| KLSQSHLYESRNKNSVA | NASTRED | QQYHRLPLS | nd | 0/6 |
| FITGNYYDKYQASNSIA | DEAHIMA | QQYDLLPLS | nd | 0/6 |
| HMNHEFLGYWNYEQAIA | HESQRLY | QQYSRLPLS | nd | 0/6 |
| KSPQSVLYELRENNSVA | WASTRES | QQYHRLPLS | nd | 0/6 |
| KMSQSVLYESRNKNNVA | WASTRES | QQYHRLVLS | nd | 0/6 |
| IVSQLMLWGHLAKNSIA | EAQTRLN | QQYDRLPLI | nd | 0/6 |

Three control strains display no target. For all light chain designs, 4% of the pairings with them gave a signal, with a median of 2.64 and one signal in twenty below 1.59, so weak values seen in few replicates may be background.
The range of this assay differs from that of the first round, and the authors advise against merging the two.
The authors averaged sequences with at least three values out of six and counted those with two or fewer as poor binders.